Tested on: Swiss Webster mice
Test: Saelens precipitated withdrawal test, TCAP-1 in fentanyl treated mice (Example 4)
Conditions: fentanyl 1 mg/kg/day infusion; TCAP-1 250 nmol/kg (and additional 500 nmol/kg day 3) vs. control; naloxone 2.5 mg/kg i.p.

Teneurin C-Terminal Associated Peptide-1
number of jumps/t 5-20 minutes: lower number of jumps/t 5-20 minutes in a dose dependent manner than control
